Measured values: patent US7459479B2, “Benzylated PDE4 inhibitors” (Biolipox AB, priority 2000, dated 2008)

Target: T1, HARBS site of PDE4
T1 construct: HARBS IC50; other: mouse brain membranes, [3H]-ROLIPRAM displacement; other: mouse brain; other: relative to ROLIPRAM (25, 26) or
Test: Displacement of [3H]-ROLIPRAM from the high affinity binding site (HARBS) in mouse brain membranes
Settings: [3H]-ROLIPRAM displacement
Description: In order to perform this assay, female CD1 mice are sacrificed via the intraperitoneal injection of 100 μL ethanol, and the brain tissue is homogenized in 5 mL of ice-cold Tris-HCl, pH 8.00 supplemented with 1.2 mM MgCl2, 1 mM benzamidine (Sigma; Catalogue No. B 6506) and 0.1 mM PMSF (Sigma; Catalogue No. P 7626). The suspension is centrifuged twice at 30,000×G at 4° C. and then the supernatant discarded. The pellet is resuspended in buffer, and adjusted to a protein concentration of 0.5 mg/mL. Compounds to be tested are dissolved in DMSO and pipetted in triplicate into a 96 well microplate at concentrations ranging from 1 to 30,000 nM. […] The plate is incubated at 4° C. for 1 hour. Contents of the plate are aspirated through a Whatman GF/C filterplate, and rinsed with 4×200 μL ice-cold buffer. The plate is dried overnight, and then 30 μL of Microscint 20 (Packard; Catalogue No. 6013621) is added to each well, and plate is read in the scintillation counter with a sampling time of 2 minutes/well. […] Triplicate determinations should be performed at each concentration.

COc1cc(CC2C(=O)NCC2c2ccc(OC)c(OC3CCCC3)c2)ccc1O (stereo not shown) [Compound 26]
IC50: 601 nM
